In US20240366807A1, “RADIOFLUORINATED AGENTS FOR PET IMAGING SELECTIVELY TARGETING FIBROBLAST ACTIVATION PROTEIN” (Trustees of tufts college, priority 2021, published 2024) one finds IC50 data, which are given here for two compounds.

Amino acid sequences for entries named in this document (tags omitted).
UniProt Q12884, whole entry: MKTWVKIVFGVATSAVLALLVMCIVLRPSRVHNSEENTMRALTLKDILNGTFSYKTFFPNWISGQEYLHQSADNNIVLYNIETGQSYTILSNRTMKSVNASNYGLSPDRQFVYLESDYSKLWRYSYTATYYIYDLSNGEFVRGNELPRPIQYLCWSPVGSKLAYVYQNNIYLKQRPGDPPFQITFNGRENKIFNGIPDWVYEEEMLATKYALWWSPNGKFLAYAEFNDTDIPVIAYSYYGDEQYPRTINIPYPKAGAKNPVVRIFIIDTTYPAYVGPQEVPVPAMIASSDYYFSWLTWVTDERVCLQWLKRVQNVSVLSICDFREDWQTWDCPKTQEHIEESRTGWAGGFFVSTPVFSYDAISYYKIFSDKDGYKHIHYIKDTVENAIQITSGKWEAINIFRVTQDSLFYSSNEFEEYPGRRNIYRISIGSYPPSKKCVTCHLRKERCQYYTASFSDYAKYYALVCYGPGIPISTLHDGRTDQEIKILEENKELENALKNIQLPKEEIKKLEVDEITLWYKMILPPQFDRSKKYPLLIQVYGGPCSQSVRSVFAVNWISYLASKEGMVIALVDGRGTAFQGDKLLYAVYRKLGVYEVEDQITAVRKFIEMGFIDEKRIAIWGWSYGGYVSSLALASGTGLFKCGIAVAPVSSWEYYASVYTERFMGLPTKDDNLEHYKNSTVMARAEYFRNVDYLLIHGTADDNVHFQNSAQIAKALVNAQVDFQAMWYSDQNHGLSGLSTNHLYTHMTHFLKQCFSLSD

The IC50 is the point on the concentration scale where inhibition reaches its midpoint.

The assay concerns the target recombinant human FAP (Homo sapiens (Human), UniProt Q12884). Nature of the assay: In vitro enzyme IC50 assay, FAP. The format is biochemical. Conditions: read-out: FAP Inhibition (IC50); Example 3, compounds of Formula XI; pH not stated.

For `CC1=CC(C)=[N+]2C1=C(CCC(=O)NNc1ccc(C(=O)N[C@H](C)C(=O)N3CCC[C@H]3B(O)O)cn1)c1c(C)cc(C)n1[B-]2(F)F`, the IC50 was found to be 0.4 nM. The result for `CC1=CC(C)=[N+]2C1=Cc1ccc(CCC(=O)NNc3ccc(C(=O)N[C@H](C)C(=O)N4CCC[C@H]4B(O)O)cn3)n1[B-]2(F)F` reads 13.9 nM.
